The text below walks through data of US20210052616A1, “ANTHRACYCLINE ENCAPSULATED WITH A POLYSACCHARIDE FOR USE IN THE TREATMENT OF TUMOURS” (NANOVELOS S.A, priority 2018, published 2021).

Holding throughout (assay type): cell-based
In one data set the test system is ACHN. Kind of data set: MTT cytotoxicity test, ACHN. The conditions noted are these: 24 h.
In the next data set the test system is PANC-1. Kind of data set: MTT cytotoxicity test, PANC-1. The conditions noted are these: 24 h.
The next data set relates to A549. Kind of data set: MTT cytotoxicity test, A549. To be noted: 24 h. Here is the method:
(§1) The subject of the study was to determine the cytotoxicity of a combination of anthracyclines encapsulated with a polysaccharide EPI, DAU, DOX, IDA on cell lines. Toxicity was assessed using a quantitative method based on the colourimetric technique (MTT) [see literature item 203]. In this test, […] present in the cells converts the soluble tetrazolium salt (3-4,5-dimethylthiazol-2-yl)-2,5-diphenyltetrazolium bromide) into a reduced form. The reaction yields water-insoluble purple crystalline formazan. The number of crystals formed depends on the enzyme activity so that it is directly proportional to the number of viable cells in the sample. […] The change in colour intensity is measured by spectrophotometry at 570 nm wavelength. […]
(§2) After reaching 85-90% confluence, the cells were trypsinised using a 0.25% trypsin solution. […] After shaking the plate on the shaker for 2 minutes, the results for 570 nm wavelength were read (reference value of 650 nm). The mean value of absorbance read OD570 of the cells not exposed to a toxic agent (control) should be above 0.7 [see literature item 206].
(§3) A decrease in the number of viable cells causes a decrease in metabolic activity in the sample. This reduction directly correlates with the amount of blue and purple formazan formed, monitored basing on the optical density at 570 nm. […]

In the next data set the test system is OVCAR-3. Briefly: MTT cytotoxicity test, OVCAR-3. To be noted: 24 h. The protocol:
as §1, §2, §3

In the next data set the test system is AU565. Kind of data set: MTT cytotoxicity test, AU565. To be noted: AU565, 1.25E+06 ng/ml NPs (pure drug equimolar), 24 h. The protocol:
as §1, §2, §3

Regarding `COc1cccc2c1C(=O)c1c(O)c3c(c(O)c1C2=O)C[C@@](O)(C(C)=O)C[C@@H]3O[C@H]1C[C@H](N)[C@H](O)[C@H](C)O1` [Dau, daunorubicin], the Average viability with ACHN (2.50E+06 ng/ml NPs (pure drug equimolar)) was 62.65%; in the data set on ACHN (5.00E+03 ng/ml NPs (pure drug equimolar)), 62.65%; with PANC-1 (PANC1, 1.25E+04 ng/ml NPs (pure drug equimolar)) it was 93.89%.

For `COc1cccc2c1C(=O)c1c(O)c3c(c(O)c1C2=O)C[C@@](O)(C(=O)CO)C[C@@H]3O[C@H]1C[C@H](N)[C@@H](O)[C@H](C)O1` [Epi, epirubicin], the Average viability in the data set with A549 (A549, 5.00E+03 ng/ml NPs (pure drug equimolar)) was found to be 103.44%; in the data set on A549 (A549, 5.00E+05 ng/ml NPs (pure drug equimolar)) it was 62.796%; in the data set with PANC-1 (PANC1, 5.00E+04 ng/ml NPs (pure drug equimolar)) it was 89.898%; in the data set with OVCAR-3 (OVCAR3, 1.25E+04 ng/ml NPs (pure drug equimolar)) it was 102.184%; in the data set with OVCAR-3 (OVCAR3, 5.00E+03 ng/ml NPs (pure drug equimolar)) it was 104.596%; in the data set on AU565 it was 1.912%.
